# Antibody variant affinities, Ab-14 heavy chain, assay B

Values reported by Li et al. 2023, doi:10.1038/s41467-023-39022-2 (FLAb copy).

Antigen: PDVDLGDISGINAS, a 14-residue peptide of the SARS-CoV-2 spike HR2 region.

Ab-14 is the parent antibody, in scFv form: VH, then three GGGGS repeats, then VL. The light chain is unchanged in all variants.
VH: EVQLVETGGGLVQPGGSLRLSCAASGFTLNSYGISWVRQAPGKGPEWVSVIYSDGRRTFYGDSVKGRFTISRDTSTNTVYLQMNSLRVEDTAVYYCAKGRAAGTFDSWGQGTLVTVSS
VL: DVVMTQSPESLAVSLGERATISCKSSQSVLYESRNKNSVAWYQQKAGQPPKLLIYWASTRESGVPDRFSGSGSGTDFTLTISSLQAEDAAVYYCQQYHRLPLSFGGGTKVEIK

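The variants were designed computationally from a first round of random CDR variants and then made and measured. Several design methods are mixed in this list. The scFvs were displayed on barcoded MATa yeast, the peptide on MATalpha yeast. The frequency of each diploid, read from paired DNA barcodes, reflects how well the two displayed proteins bind. Scores were corrected for input abundance and mapped to Kd with protein pairs of known affinity run in the same pool. Mating was done six times.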

Each variant is given by its three heavy chain CDRs, as the data file delimits them; those of the parent are GFTLNSYGIS, VIYSDGRRTFYGDSVK, GRAAGTFDS.
The read-out is the apparent dissociation constant on a log10 scale (nM): the lower, the stronger.
A pair that was not seen in that replicate is written "ND"; this usually means weak binding, but a binder can also be missed.
The range of this assay differs from that of the first round, and the authors advise against merging the two.
The authors' rule: three or more of the six replicates give a measured affinity, fewer mean a poor binder.
Empty control strains, which show no peptide, gave a signal in 1% of pairings with all heavy chain designs; the median was 2.08 and 95% of these signals were weaker than 0.84. No background was subtracted.
Some sequences occur more than once in the pool; their replicates are listed entry by entry, parted by semicolons.

| replicates, log10 nM | CDR-H1 | CDR-H2 | CDR-H3 |
|---|---|---|---|
| -0.03 -0.59 -0.44 -0.55 -0.06 -0.64 | GFDLDEYGIS | VIYADGVRTAYADSVK | GEVAGTFDT |
| 1.14 0.48 0.84 0.75 0.86 0.96 | GFSLNEYGIS | VIYSDGRRTFYGDSVK | GFAAGTFDL |
| ND ND ND ND ND ND | GFDLNEYGIS | VIYADGLRKSYANSVK | NGLRSFFFV |
| 0.57 -0.48 -0.38 -0.30 -0.12 -0.44 | GFDLNEYGIS | VIYADGVRTFYADSVK | GNTAGTFDV |
| ND ND ND ND ND ND | GFSLNEYGIS | VIYSDGRRTFYGDSVK | GRNAGTFIS |
| ND 2.47 ND 1.16 ND 1.90 | GFNLDEYGIS | VIYADGQRTAYADSVK | GEVAGTFDL |
| 2.27 1.32 0.90 1.10 1.93 1.21 | GFNLNSYGIS | VIYSDGRRTFYADDVK | GQAAGTFDS |
| ND 0.36 0.05 -0.41 -0.17 0.09 | GFDLNEYGIS | VIYADGMRTYYADSVK | GTNAGTFDQ |
| ND ND ND ND ND ND | KFTLNEYGIS | VIYSDGRRTFYGDSVK | GRAAVTFDL |
| 0.70 0.49 ND 0.25 0.29 -0.09 | GFDLNSYGIS | VIYSDGRRTFYKDTVK | GRTAGTFDS |
| 0.06 0.20 -0.24 -0.30 -0.11 0.04 | GFDLNSYGIS | VIYSDGRRTFYGDSVK | GRVAGTFDI |
| 0.42 -0.44 -0.06 -0.33 0.14 -0.05 | GFSLNDYGIS | VIYSDGRRTFYGDSVK | GRTAGTFDV |
| ND ND ND ND ND ND | GFTLNSYGIS | VIYADGRRAFYGDSVK | GRLAGTNKS |
| 1.27 ND 1.76 2.14 1.50 0.95; ND 1.55 1.49 2.02 0.54 1.81 | GFTLNSYGIS | VIYSDGRRTFYQDSVK | GQAAGTFDS |
| ND ND ND ND ND ND | GFTLNSYGIS | VIYSDGRRTFYGDSVK | GRAAGSFRT |
| ND ND ND ND ND ND | GFDLEEYGIS | VIYADGVRTAYKNKVK | GWIAGGQFD |
| ND ND ND ND 1.80 ND | GFTLNSYGIS | VIYSDGRRTFYTDSVK | GRIAGTFDS |
| -0.14 0.33 -0.23 0.36 0.20 0.83 | GFDLDEYGIS | VIYADGSRVAILESVK | GKIAGTFDT |
| ND 0.26 0.80 1.46 1.05 0.02 | GFTLLSYGIS | VIYSDGRRTFYSDSVK | GAAAGTFDM |
| ND 3.97 ND ND ND ND | GETLNSYGIS | VIYSDGRRTFYGDSVK | GRAALTFDS |
| 0.44 0.52 0.19 0.70 0.38 0.47 | GFTLNSYGIS | VIYSDGKRTFYGDSVK | GREAGTFDS |
| ND ND ND ND ND ND | GFNIDEYGIS | VIYADGFRAVYTDSVK | GHNGMRLTV |
| 0.30 0.30 1.63 0.54 0.45 0.19 | GFDLNDYGIS | VIYSDGRRTFYGDSVK | GRAAGTFES |
| ND ND ND ND ND ND | GFDLDEYGIS | VIYADGMRTAYQQKVK | GQETDTNVV |
| ND ND ND ND ND ND | GFTLNSYGIS | VIYSDGLREMYGDSVK | GSAMGTFDS |
| ND ND ND ND ND ND | GFTLNSYGIS | VIYSDGERTFYGDSVK | GRVAWTFDS |
| 2.74 1.81 ND 1.85 2.57 1.84 | GFSLNSYGIS | VIYSDGRRTFYGDSVK | GVKAGTFDD |
| -0.21 -0.17 -0.10 -0.30 -0.06 -0.10 | GFDLNEYGIS | VIYADGQRTAYADSVK | GENAGTFDL |
| 0.34 -0.23 0.05 -0.38 0.15 0.10 | GFDLNEYGIS | VIYADGRRTFYSDSVK | GKVAGTFDV |
| 0.27 0.40 -0.16 1.57 -0.49 0.76 | GFTLNSYGIS | VIYSDGRRTFYADSVK | GRLAGTFDT |
| -0.15 -0.73 -0.58 -0.72 -0.64 -0.05 | GFDLNEYGIS | VIYADGMRTAYADNVK | GQNAGTFDL |
| 0.73 ND 1.74 -0.42 -0.04 ND | GFDLNSYGIS | VIYSDGRRTFYIDNVK | GKAAGTFDS |
| 1.10 ND ND 1.51 1.80 ND | GFTLNDYGIS | VIYSDGRRTFYTDSVK | GRFAGTFDV |
| ND 3.02 ND 2.97 ND 2.17 | GFTLESYGIS | VIYSDGRRTFYGDSVK | GRAAGTFDK |
| -0.64 -0.19 -0.51 -0.48 0.29 -0.18 | KFQLNSYGIS | VIYSDGRRTFYADSVK | GRLAGTFDT |
| ND ND ND ND ND ND | GFTLNEYGIS | VIYSDGRRTFYGDSVK | GRLAGTFDG |
| -0.17 -0.48 -0.59 -0.21 -0.23 0.06 | GFDLNEYGIS | VIYADGLRTFYADSVK | GNAAGTFDV |
| -0.52 -0.13 -0.47 0.09 -0.10 -0.33 | GFDLNEYGIS | VIYADGRRTFYADSVK | GENGGTFDV |
| ND 1.57 2.08 1.57 ND ND | GFTLNSYGIS | VIYSDGRRTFYGDSVK | GRSAGTFDS |
| 0.18 1.27 ND -0.55 -0.01 0.94 | GFSLNEYGIS | VIYSDGRRTFYGDSVK | GSAAGTFDN |
| ND ND ND ND ND ND | GFSLGEYGIS | VIYADGERTNYVSNFK | GVLAGTFVL |
| ND ND ND 2.46 ND 1.94 | KFSLNSYGIS | VIYSDGRRTFYGDSVK | GKTAGTFDS |
| ND 0.52 -0.02 0.35 1.66 -0.48 | GFNLNSYGIS | VIYSDGRRTFYKDSVK | GRLAGTFDS |
| ND ND ND ND ND ND | GFDLESYGIS | VIYADGMRTSYTANVK | GKNVMIMTG |
| ND ND ND 2.06 ND ND | GFTLNSYGYS | VIYSDGRRTFYGDSVK | GRVPGTFDS |
| -0.20 -0.54 -0.60 -0.52 -0.69 -0.46 | GFSLNEYGIS | VIYADGRRTFYGDSVK | GQAAGTFDS |
| ND ND ND ND ND ND | GFKLQSYGIS | VIYSDGRRTFYGDSVK | QRAAGTFPS |
| ND ND ND ND ND ND | GFTLNSYGDS | VIYGLGRRTFYSDSVK | GRAGGTFDS |
| 0.67 0.52 0.03 0.43 0.37 0.44 | GFDLDEYGIS | VIYADGQRTYYADSVK | GQNAGTFDV |

Extract of 3 entries:

{"CDR-H1": "GFDLESYGIS", "CDR-H2": "VIYADGMRTSYTANVK", "CDR-H3": "GKNVMIMTG", "replicates, log10 nM": "ND ND ND ND ND ND"}
{"CDR-H1": "GFTLNSYGIS", "CDR-H2": "VIYSDGRRTFYTDSVK", "CDR-H3": "GRIAGTFDS", "replicates, log10 nM": "ND ND ND ND 1.80 ND"}
{"CDR-H1": "KFQLNSYGIS", "CDR-H2": "VIYSDGRRTFYADSVK", "CDR-H3": "GRLAGTFDT", "replicates, log10 nM": "-0.64 -0.19 -0.51 -0.48 0.29 -0.18"}